# scFv variants of Ab-95 (light chain) against a SARS-CoV-2 spike peptide

Data: MIT Lincoln Laboratory AlphaSeq set, Engelhart et al. 2022, doi:10.1038/s41597-022-01779-4, as distributed in FLAb.

Antigen: PDVDLGDISGINAS, a 14-residue peptide of the SARS-CoV-2 spike HR2 region.

The variants keep the heavy chain, the linker and the frameworks of Ab-95 (scFv order VH, a 15-residue (Gly4Ser)3 linker, VL).
VH: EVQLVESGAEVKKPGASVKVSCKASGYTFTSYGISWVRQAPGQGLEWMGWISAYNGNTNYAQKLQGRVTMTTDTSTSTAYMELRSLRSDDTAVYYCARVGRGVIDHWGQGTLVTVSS
VL: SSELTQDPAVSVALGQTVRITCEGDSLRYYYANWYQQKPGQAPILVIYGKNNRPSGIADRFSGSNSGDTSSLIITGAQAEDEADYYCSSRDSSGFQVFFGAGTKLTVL

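The starting antibody came from a phage panning campaign against this peptide. The library (AAYL52) carries one to three amino acid substitutions per variant, with no insertions or deletions. Affinity was read by AlphaSeq, a pooled yeast mating assay with surface-displayed partners. The frequency of each diploid, read from paired DNA barcodes, reflects how well the two displayed proteins bind. Scores were corrected for input abundance and mapped to Kd with protein pairs of known affinity run in the same pool. Each pool was mated in three replicate cultures.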

Positions count from residue 1 of the parent VL; R28E puts E in place of R.
Affinities are written as log10 Kd with Kd in nM; a lower number is a better binder.
The mean shown is taken over the replicates in which the pair was detected.
"n.d." marks a missing value. The strain was present, yet no cells mated with the target were sequenced in that replicate, which points to weak or no binding.
As a blank, each scFv also met three strains without target: over library AAYL52, 28% of these pairings were detected, typically at 3.91 and seldom below 2.90. Also given: how often the same scFv was detected with the empty control strains, with their mean in brackets.

changes,"replicates, log10 nM","mean, log10 nM",control signals
R28E+N51D+V97Q,2.54 / 3.64 / 3.88,3.35,2/9 (4.59)
L27D+V97G+F98V,2.39 / 1.96 / 1.61,1.99,5/9 (4.38)
L27H+S55R+F98Q,3.77 / 3.76 / 3.89,3.81,3/9 (4.25)
A32N+S92K,2.44 / 2.41 / 2.29,2.38,3/9 (3.40)
N51W+S55E+D91R,4.51 / n.d. / n.d.,4.51,5/9 (4.32)
N33G+S55R+S88C,n.d. / n.d. / n.d.,n.d.,1/9 (3.95)
R28E+S88T+F95A,2.80 / 2.12 / 1.76,2.23,3/9 (4.06)
Y31R+P54Y+F95G,n.d. / 4.44 / n.d.,4.44,2/9 (3.90)
N51D+Q96N+V97W,3.42 / 3.67 / n.d.,3.54,3/9 (4.08)
N51E+R90V,n.d. / 3.79 / 4.37,4.08,4/9 (3.91)
E23I+L27Y+S88R,4.28 / 3.51 / n.d.,3.90,2/9 (4.23)
E23K+N33Q+G49K,n.d. / n.d. / n.d.,n.d.,3/9 (3.63)
L27N+N51L+S93W,3.84 / 2.65 / 2.73,3.07,6/9 (3.82)
G24N+Y29K+S55V,1.63 / 1.58 / 0.50,1.24,1/9 (3.12)
N52H+R53D+R90K,n.d. / n.d. / n.d.,n.d.,0/9
Y30F+P54R+F98W,4.02 / 2.68 / n.d.,3.35,0/9
S26Y+N51K+R53P,n.d. / n.d. / n.d.,n.d.,1/9 (3.60)
S92C+S93H+F95R,2.32 / 1.96 / 1.91,2.06,5/9 (3.87)
G24P+L27G+S93K,5.76 / n.d. / n.d.,5.76,1/9 (2.72)
N52Y+V97T,n.d. / 3.55 / n.d.,3.55,0/9
G49T+P54R+R90I,n.d. / n.d. / n.d.,n.d.,2/9 (4.26)
N52G+S89Q+F95D,3.75 / 2.78 / 2.40,2.98,5/9 (4.58)
A32D+S55F+S89P,3.35 / n.d. / 4.06,3.71,2/9 (4.07)
G24P+Y31N+P54S,1.80 / 1.87 / 1.61,1.76,4/9 (4.64)
D25K+Y31A+S93F,n.d. / 4.93 / 1.88,3.41,1/9 (3.70)
E23D+N33P+S93G,n.d. / 4.20 / 4.89,4.54,4/9 (4.01)
G49D+S89T+S93L,3.02 / 3.27 / 3.00,3.10,4/9 (3.57)
A32P+R90K,2.89 / 2.47 / 1.88,2.41,1/9 (3.63)
S26V+R28T+Y30S,1.90 / 1.85 / 1.52,1.76,3/9 (4.53)
N52V+P54E+D91Q,n.d. / n.d. / n.d.,n.d.,0/9
N52R+F95Q+V97M,3.43 / 2.92 / 3.08,3.14,4/9 (3.78)
S26N+R53E+S55M,4.05 / n.d. / n.d.,4.05,0/9
Y30I+S89V+S92H,2.48 / 3.03 / 2.21,2.57,1/9 (3.80)
E23S+N52E+F95Y,1.97 / 1.67 / 1.29,1.64,3/9 (4.48)
N33F+N51K+G94A,3.75 / 4.28 / n.d.,4.01,4/9 (3.33)
Y29G+Y30R+S92G,1.49 / 1.33 / 1.02,1.28,4/9 (3.82)
N33E+D91L+V97L,n.d. / n.d. / n.d.,n.d.,4/9 (3.94)
S26Y+L27H+Y31G,3.02 / 2.97 / 3.13,3.04,6/9 (3.95)
L27I+N33M,n.d. / n.d. / 4.46,4.46,1/9 (3.10)
R90V+D91K+F98Y,n.d. / n.d. / n.d.,n.d.,2/9 (2.86)
L27P+Y31C+N33T,n.d. / 4.55 / n.d.,4.55,5/9 (3.61)
D25R+A32W+K50D,3.65 / n.d. / n.d.,3.65,6/9 (4.24)
L27M+V97H,3.25 / 2.78 / 3.10,3.04,2/9 (3.49)
N33R+S88K+F98S,n.d. / n.d. / n.d.,n.d.,2/9 (3.66)
S55E+S89I+Q96F,n.d. / n.d. / 2.97,2.97,0/9